Each structure is given as a SMILES string. The list shows a part of the results, in another mix than the full data. Results filed as inconclusive are left out. Calls of active or inactive are those of the source. Calls follow the shape of the full dose curve.

This assay concerns the target Snurportin-1 (Homo sapiens) + GTP-binding nuclear protein Ran (Homo sapiens) + Importin subunit beta-1 (Homo sapiens) (UniProt O95149+P62826+Q14974). Put plainly: qHTS Assay for Inhibitors of RanGTP induced Rango (Ran-regulated importin-beta cargo) - Importin beta complex dissociation. Also: % of control where 0% means no effect; nearly all actives have a fitted effect of over 45% in size. The note with it: Biochemical FRET Rango-importin beta; at 46.1 µM (top of the series). A general note: Quantitative high-throughput screening tests each substance at several concentrations.
With `O=[As](O)(c1ccc(O)cc1)c1ccccc1O`, the activity change, negative = inhibition was inactive: -1.35%.
Turning to `C[As](=O)(O)c1cccc(C(=O)O)c1`, the activity change, negative = inhibition was inactive: 3.39%.
Next, `O=[N+]([O-])c1ccc(-c2cc([N+](=O)[O-])c(O)c([N+](=O)[O-])c2)cc1`: inactive: 43.9%; `COc1cc(C(=O)NCC2(N3CCOCC3)CCCCC2)ccc1OCC(C)C`: inactive: 1.08%.
In the case of `O=[N+]([O-])c1cc([N+](=O)[O-])c(Nc2cccnc2)c([N+](=O)[O-])c1`, the activity change, negative = inhibition was inactive: -9.98%.
For `O=[N+]([O-])c1ccc2c(c1)C=Nc1ccccc1O2`, the activity change, negative = inhibition is inactive: -3.52%.
Next, `Cc1ccc2nc3c(c(C)c2c1)CC(C(Cl)Cl)S3` (stereo not drawn): inactive: -7.24%.
Next, `Cc1ccc(OP(=O)(Nc2ccc([N+](=O)[O-])cn2)Oc2ccc(C)cc2)cc1`: inactive: -0.542%.
Take `CC(C)(C)c1ccc(OP(C)(=O)Nc2ccc(SC(F)(F)F)cc2)cc1` (stereo not drawn): the activity change, negative = inhibition was inactive: 19.3%.
For the compound `Cc1cccc(C)c1OP(C)(N)=O` (stereo not drawn), the activity change, negative = inhibition was inactive: -12.9%.
Next, `COc1ccccc1OP(C)(=O)Nc1ccc(C)cc1` (stereo not drawn): inactive: -2.03%; `COC(=O)C1(C)COP(=O)(N2CCCCCC2)OC1` (stereo not drawn): inactive: 10.3%.
The same measure for `Cc1ccc(NP(C)(=O)Oc2ccccc2)c(C)c1` (stereo not drawn): inactive: -0.772%; for `CC(C)c1ccc(OP(=O)(Nc2ccccn2)Oc2ccccc2F)cc1` (stereo not drawn): inactive: 27.4%; for `CCOC(=O)c1ccc(NP(C)(=O)Oc2ccccc2)cc1` (stereo not drawn): inactive: 17.4%.
For `ClCCSc1nnc(-c2cccnc2)o1`, the activity change, negative = inhibition was inactive: 1.05%.
As to `Cc1cc(C)cc(OP(C)(N)=O)c1` (stereo not drawn), the activity change, negative = inhibition is inactive: 9.76%.
Next, `COc1ccccc1OP(C)(=O)Nc1cc(Cl)ccc1C` (stereo not drawn): inactive: -13%; `CC(C)NC(=O)NP(=O)(Oc1ccccc1)Oc1ccccc1`: inactive: 17.2%.
Take `CCN(CC)C(=S)SC(NC=O)C(Cl)(Cl)Cl` (stereo not drawn): the activity change, negative = inhibition was inactive: 0.281%.
Regarding `O=C(OC1CN2CCC1CC2)c1cccc2[nH]cnc12` (stereo not drawn), the activity change, negative = inhibition is inactive: 2.92%.
The same measure for `COc1ccc(OP(C)(=O)Nc2cccc(F)c2)cc1` (stereo not drawn): inactive: 15.8%; for `O=[N+]([O-])c1cc([N+](=O)[O-])c(-c2ccn[nH]2)s1`: inactive: 1.61%.
For the compound `O=C(OC1CN2CCC1CC2)C12CC3CC(CC(C3)C1)C2` (stereo not drawn), the activity change, negative = inhibition was inactive: 7.8%.
Next, `Cc1cc(=O)[nH]c(N[N+](=O)[O-])n1`: inactive: -0.0903%; `CCN(CC)CCCOC(=O)C(O)(c1ccccc1)c1ccccc1`: inactive: 8.07%; `Cc1c2c(nc3ccccc13)SC(C(Cl)Cl)C2` (stereo not drawn): inactive: 5.78%.
Turning to `COc1ccc2nc(NP(=O)(c3ccccc3)c3ccccc3)sc2c1`, the activity change, negative = inhibition is inactive: 0.113%.
`COc1cc(I)ccc1[As](=O)(O)O`: the activity change, negative = inhibition is inactive: 0.145%.
In the case of `O=P1(N(CCCl)CCCl)Nc2ccccc2N1`, the activity change, negative = inhibition was inactive: 18.2%.
For `O=P1(N(CCCl)CCCl)OCCCN1CCCl` (stereo not drawn), the activity change, negative = inhibition was inactive: -12%.
Next, `COc1ccc(N/C(=N/P(=O)(N2CCOCC2)N2CCOCC2)N2CCOCC2)cc1`: inactive: -2.95%.
The same measure for `O=[N+]([O-])c1cc(Oc2ccc([N+](=O)[O-])cc2C(F)(F)F)cc([N+](=O)[O-])c1`: inactive: 4.96%; for `COP1(=S)c2c(C)nn(CCC#N)c2N=C(c2ccc(F)cc2)N1C` (stereo not drawn): inactive: -6.19%; for `Cc1cccc(C)c1OP(C)(=O)Nc1ccc(SC(F)(F)F)cc1` (stereo not drawn): inactive: 17.6%.
For `CP(=O)(Nc1ccc(SC(F)(F)F)cc1)Oc1ccc(Cl)cc1` (stereo not drawn), the activity change, negative = inhibition is inactive: 30.7%.
Turning to `CP(=O)(Oc1ccccc1)OC(c1ccccc1)C(F)(F)F` (stereo not drawn), the activity change, negative = inhibition was inactive: 3.8%.
Next, `O=C(COc1ccccc1)OC1CN2CCC1CC2` (stereo not drawn): inactive: -3.66%; `CP(=O)(NC(=O)Nc1ccccc1)Oc1ccccc1` (stereo not drawn): inactive: 8.84%; `CCc1ccc(OP(C)(=O)N2CCN(c3ccc([N+](=O)[O-])cc3)CC2)cc1` (stereo not drawn): inactive: 14.5%.
Take `Cc1cc(C)cc(OP(C)(=O)Nc2ccc(SC(F)(F)F)cc2)c1` (stereo not drawn): the activity change, negative = inhibition is inactive: 2.71%.
For `O=C(Nc1ccncc1[N+](=O)[O-])c1ccc([N+](=O)[O-])cc1[N+](=O)[O-]`, the activity change, negative = inhibition is inactive: 1.2%.
Consider `CCOC(=O)c1ccc(NP(C)(=O)Oc2ccc(OC)cc2)cc1` (stereo not drawn), for which the activity change, negative = inhibition is inactive: -12.6%.
Next, `CCOC(=O)c1ccc(NC(=O)C(C)(CCl)SC)cc1` (stereo not drawn): inactive: 4.27%; `O=[N+]([O-])c1cc([N+](=O)[O-])c(O)c([N+](=O)[O-])c1.c1ccc(Oc2ccncc2)cc1`: inactive: 4.3%; `O=C(OC1CN2CCC1CC2)c1cccc([N+](=O)[O-])c1` (stereo not drawn): inactive: 2.01%.
As for `CCOP(C)(=S)SCC(=O)NC(C)C(=O)O` (stereo not drawn), the activity change, negative = inhibition was inactive: -5.93%.
Take `CP(=O)(Nc1ccccn1)Oc1ccc(Cl)cc1` (stereo not drawn): the activity change, negative = inhibition is inactive: -8.9%.
As to `CCC(C)N(CC(C)C)C(=S)SC(NC(C)=O)C(Cl)(Cl)Cl` (stereo not drawn), the activity change, negative = inhibition is inactive: 0.214%.
Consider `CC1CCNP(=O)(N(CCCl)CCCl)O1` (stereo not drawn), for which the activity change, negative = inhibition is inactive: 1.02%.
`CCOC(=O)Nc1ccc([As](=O)(O)O)c(O)c1`: the activity change, negative = inhibition is inactive: -10.2%.
For `CCCCOc1ccc(C(=O)NCC2(N3CCCCC3)CCCCC2)cc1OC`, the activity change, negative = inhibition is inactive: -9.63%.
Next, `Cc1cc(SC(NC(=O)c2ccccc2)C(Cl)(Cl)Cl)nc(C(C)C)n1` (stereo not drawn): inactive: -11.9%.
For the compound `CCOC(=O)Nc1cccc([As](=O)(O)O)c1`, the activity change, negative = inhibition is inactive: 29.1%.
Consider `CP(=S)(Nn1cnnc1)Oc1ccccc1` (stereo not drawn), for which the activity change, negative = inhibition is inactive: 9.27%.
As to `CP(=O)(Nc1ccccc1Br)Oc1ccccc1` (stereo not drawn), the activity change, negative = inhibition was inactive: -4.64%.
As to `O=[N+]([O-])c1ccc(Nc2ccc(Oc3ccc([N+](=O)[O-])cc3[N+](=O)[O-])cc2)c([N+](=O)[O-])c1`, the activity change, negative = inhibition is inactive: -0.974%.
In the case of `O=P(Nc1ccccn1)(c1cccc2ccccc12)c1cccc2ccccc12`, the activity change, negative = inhibition is inactive: -13%.
Turning to `Cc1cc(SC(NC=O)C(Cl)(Cl)Cl)ncn1` (stereo not drawn), the activity change, negative = inhibition was inactive: 2.17%.
Take `COc1ccccc1OP(C)(=O)Nc1ccccc1` (stereo not drawn): the activity change, negative = inhibition is inactive: 3.47%.
In the case of `COc1cc(C2NCCC3(OCCO3)C2(C)C)cc(OC)c1OC.O=[N+]([O-])c1cc([N+](=O)[O-])c(O)c([N+](=O)[O-])c1` (stereo not drawn), the activity change, negative = inhibition was inactive: 0.589%.
Take `Cc1nn(-c2ccccc2)c2c1P(=O)(N1CCOCC1)N(C)C(c1ccccc1)=N2` (stereo not drawn): the activity change, negative = inhibition was inactive: 15.1%.
Turning to `CC1CCC(C(C)C)C(OP(=O)(Nc2ccccn2)c2ccccc2)C1` (stereo not drawn), the activity change, negative = inhibition is inactive: -7.36%.

These data come from PubChem BioAssay AID540253 (National Center for Advancing Translational Sciences (NCATS), 2011).
